Laboratory results as given in ChEMBL document CHEMBL5126552, “Discovery of small-molecule compounds and natural products against Parkinson's disease: Pathological mechanism and structural modification” (Eur J Med Chem, 2022).

Species on record: Mus musculus
Conditions: C57BL/6

CC1=C(C)C(=O)c2cc(C)ccc2C1=O showed a Km of 40 µM.
